# According to US20160051695A1, “HER2 ANTIBODY-DRUG CONJUGATES” (AbGenomics International Inc., priority 2014, published 2016):
# Several values for one entry are separate records, joined by “and”; a condition that tells them apart may be missing. Equal values may be shown once.
# What was measured:
# [1] = test system: NCI-N87 gastric cancer cells; experiment: Binding of antibodies and Tap18Hr1 conjugates to cells, flow cytometry; parameters: species or system human; settings: Unconjugated Ab, 3.3 μg/mL
# [2] = test system: SKOV-3 ovarian cancer cells; experiment: as above; parameters: species or system human; settings: Unconjugated Ab, 3.3 μg/mL
# [3] = test system: MDA-MB-453 breast cancer cells; experiment: as above; parameters: species or system human; settings: Unconjugated Ab, 3.3 μg/mL
# [4] = test system: JIMT-1 breast cancer cells; experiment: as above; parameters: species or system human; settings: Unconjugated Ab, 3.3 μg/mL
# [5] = test system: NCI-N87 gastric cancer cells; experiment: In vitro cytotoxicity assay: WST-1; format: cell-based, human
# [6] = test system: SKOV-3 ovarian cancer cells; experiment: In vitro cytotoxicity assay: WST-1; format: cell-based, human
# [7] = test system: MDA-MB-453 breast cancer cells; experiment: In vitro cytotoxicity assay: WST-1; format: cell-based, human; settings: MDA-MB-453, 96 hours
# [8] = test system: JIMT-1 breast cancer cells; experiment: In vitro cytotoxicity assay: WST-1; format: cell-based, human
substance,measurement,setting,value
"Anti-HER2-IgG1: humanized anti-HER2 antibody, light chain SEQ ID NO. 9, heavy chain SEQ ID NO. 10 (trastuzumab sequences, human IgG1)",MFI,[1],9871 and 9698
same,MFI,[2],8157 and 6206
same,MFI,[3],8009
same,MFI,[4],1574 and 1550 and 1738 and 1026
same,% inhibition,[5]; 1.25 μg/mL,36.9%
same,% inhibition,[5]; 5 μg/mL,46.7%
same,% inhibition,[6]; 1.25 μg/mL,−2.9%
same,% inhibition,[6]; 5 μg/mL,0.9%
same,% inhibition,[7]; 1.25 μg/mL,56.8%
same,% inhibition,[7]; 5 μg/mL,58.9%
same,% inhibition,[8]; 1.25 μg/mL,7.2%
same,% inhibition,[8]; 5 μg/mL,9.3%
